The source of these data is patent US20250353828A1, “SUBSTITUTED BIARYL ENDOCHIN-LIKE QUINOLONES WITH ENHANCED ANTIPARASITIC ACTIVITY” (Oregon Health & Science University, priority 2022, published 2025).

For assay [1], the system named is P. falciparum cytochrome bc1 complex. The class given is biochemical. The conditions noted are these: based on enzyme inhibitory activity. An excerpt:
Isolation of Plasmodium falciparum Mitochondria and Ubiquinol-Cytochrome c Oxidoreductase Assay.

For assay [2], the target named is T1, P. falciparum cytochrome bc1 complex (Plasmodium falciparum, UniProt Q02768).
T1 construct: endogenous in cells
T1 sequence (Q02768 1-376): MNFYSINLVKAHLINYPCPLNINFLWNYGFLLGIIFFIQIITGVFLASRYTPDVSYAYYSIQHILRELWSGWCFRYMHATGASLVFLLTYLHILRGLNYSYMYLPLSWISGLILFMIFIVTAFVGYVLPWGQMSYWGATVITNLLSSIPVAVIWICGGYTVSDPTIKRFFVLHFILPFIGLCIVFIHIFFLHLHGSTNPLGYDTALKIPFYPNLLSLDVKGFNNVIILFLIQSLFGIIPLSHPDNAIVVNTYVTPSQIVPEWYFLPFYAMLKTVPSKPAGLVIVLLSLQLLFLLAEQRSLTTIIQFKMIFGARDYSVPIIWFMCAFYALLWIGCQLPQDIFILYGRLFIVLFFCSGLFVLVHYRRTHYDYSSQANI
Conditions: data taken from Nilsen et al., 2013 (a) or Frueh et al., 2017 (b); cited from earlier work.

In the case of `O=C1C(O)=C([C@H]2CC[C@H](c3ccc(Cl)cc3)CC2)C(=O)c2ccccc21` [Atovaquone, reference compound], the “Selectivity Index Human/Pf cyt. bc1” value in assay [1] is given as 230. Also, in assay [2], the IC50 is 2 nM.

One may read the IC50 as the concentration at which inhibition is half-maximal.
